Test: Efflux ratio of permeability from basolateral to apical over apical to basolateral side in dog MDCK2-MDR1 cells expressing ABCB1 at 5 uM after 30 mins by LC-MS/MS analysis
Conditions: mdck-mdr1, 0.5 h

Compound | Ratio
CN1CCC(C)(C)c2cc3c(cc21)[Se]c1cc2c(cc1=C3c1ccc(C(=O)N3CCCCC3)s1)C(C)(C)CC[N+]=2C.[Cl-] | 36
O=C(c1ccc(C2=c3cc4c5c(c3[Se]c3c2cc2c6c3CCCN6CCC2)CCC[N+]=5CCC4)s1)N1CCCCC1.[Cl-] | 37
CN1CCC(C)(C)c2cc3c(cc21)[Se]c1cc2c(cc1=C3c1ccc(C(=S)N3CCCCC3)s1)C(C)(C)CC[N+]=2C.[Cl-] | 4
C[N+]1=c2cc3c(cc2C(C)(C)CC1)=C(c1ccc(C(=S)N2CCCCC2)s1)c1cc2c4c(c1[Se]3)CCCN4CCC2.[Cl-] | 20
S=C(c1ccc(C2=c3cc4c5c(c3[Se]c3c2cc2c6c3CCCN6CCC2)CCC[N+]=5CCC4)s1)N1CCCCC1.[Cl-] | 57
C[N+]1=c2cc3c(cc2C(C)(C)CC1)=C(c1ccc(C(=O)N2CCCCC2)s1)c1cc2c4c(c1[Se]3)CCCN4CCC2.[Cl-] | 48

From ChEMBL document CHEMBL3826914, “Selective photodepletion of malignant T cells in extracorporeal photopheresis with selenorhodamine photosensitizers” (Bioorg Med Chem, 2016)
